Experimental data published in PMC7203682, “Pharmacological Inhibition of MALT1 Protease Leads to a Progressive IPEX-Like Pathology” (Frontiers in Immunology, 2020).

System: female Lewis rat
Conditions: in vivo

SMILES: CO[C@@H](C)c1c(NC(=O)Nc2ccnc(C(F)(F)F)c2)cnc2cc(Cl)nn12 [MLT-943]
- histological scores: significantly reduced
- paw swelling: significantly reduced
